Literature values in article PMC3088502 (Bioorganic & medicinal chemistry, 2011).

System: pancreatic cancer cells xenograft
Settings: immunocompromised mice; ref [26],[27]; cited from earlier work

CCCCCCCCCCCCc1ccc(S(=O)(=O)Nc2nncs2)cc1 [Compound 29, 4-Dodecyl-N-(1,3,4-thiadiazol-2-yl)benzenesulfonamide]
Antitumor activity: good antitumor activity
